This passage reports Minimum bactericidal concentration results from patent publication US4602011A, “Antimicrobial compositions and methods of using same” (Chapman Chemical Company, priority 1982, dated 1986).

The subject of the test is Micrococcus flavus (10240). The following applies: ppm of active ingredient; "1" means 1 or less.

On to `CCCCCCCCCCCCc1ccc(S(=O)(=O)O)cc1` [DDBSA, dodecyl benzene sulfonic acid], for which the Minimum bactericidal concentration was determined as 100 ppm.
